Measured affinities in a library of Ab-91 heavy chain variants

Values reported by Engelhart et al. 2022, doi:10.1038/s41597-022-01779-4 (FLAb copy).

Target: peptide PDVDLGDISGINAS, taken from heptad repeat 2 (HR2) of SARS-CoV-2 spike.

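Phage display of a naive human antibody library on the peptide gave the parent. The library (AAYL51) carries one to three amino acid substitutions per variant, with no insertions or deletions. The assay is AlphaSeq: two haploid yeast populations carry antibody and antigen on their surface. After mating in shaken culture at 30 °C for 16 h, diploids were selected and their barcode pairs sequenced. The ratio of observed to expected reads was calibrated, replicate by replicate, on BCL2-family standards whose Kd was known from biolayer interferometry. Each pool was mated in three replicate cultures.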

The variants keep the light chain, the linker and the frameworks of Ab-91 (scFv order VL, the linker GGGGSGGGGSGGGGS, VH).
VL: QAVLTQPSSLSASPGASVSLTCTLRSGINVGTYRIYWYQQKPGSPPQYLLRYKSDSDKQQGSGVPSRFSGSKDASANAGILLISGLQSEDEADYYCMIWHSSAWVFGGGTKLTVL
VH: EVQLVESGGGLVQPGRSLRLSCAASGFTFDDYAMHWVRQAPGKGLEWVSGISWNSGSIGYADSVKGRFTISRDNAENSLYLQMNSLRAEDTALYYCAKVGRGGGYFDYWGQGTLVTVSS

The parent's heavy chain CDRs are GFTFDDYAMH, GISWNSGSIGYADSVK, VGRGGGYFDY; each variant's own CDRs replace them letter for letter. Values are log10 of the apparent Kd in nM; lower means stronger binding. Where no diploid with the target was found in that replicate, the entry reads "nd": below detection, most likely a poor binder, though not proof of it. As a blank, each scFv also met three strains without target: over library AAYL51, 21% of these pairings were detected, typically at 4.54 and seldom below 3.26. The control count says in how many pairings with the empty strains this scFv gave a signal, with their mean in brackets. In this assay the parent's reference entry averaged 1.86; its copy inside this library read 0.88.

| # | CDR-H1 | CDR-H2 | CDR-H3 | log10 Kd (nM) by replicate | empty controls |
|---|---|---|---|---|---|
| 1 | GFTFDDYAGH | GISWNSGSIGYADIVK | VGRGGGYYDY | 2.33 2.44 nd | 0/9 |
| 2 | GFTFDDYAMH | GISWNSGSIGYADSIK | CGRGGDYFDY | nd nd nd | 0/9 |
| 3 | GWTFDDYAMH | GISWWSGSIGYPDSVK | VGRGGGYFDY | 4.96 nd nd | 6/9 (4.36) |
| 4 | MFTFDDYAMH | GIEWNSGSIGYADSVK | VGRGGGYFSY | nd nd 2.62 | 1/9 (3.43) |
| 5 | GITFDDYAMH | GISWNSGSIGYADSVN | VGRWGGYFDY | nd nd nd | 2/9 (4.33) |
| 6 | GFTFDDYAMH | GISWNSGCIGYADSKK | VGRGGGYFDY | nd nd nd | 0/9 |
| 7 | VFTFDDYAMH | GISWNSGSNGYADSVY | VGRGGGYFDY | 1.41 1.69 2.19 | 1/9 (3.07) |
| 8 | GFTFDDYAMH | GISWNSGDIHYADSVK | VGRGGFYFDY | nd 4.71 nd | 4/9 (4.83) |
| 9 | GFTFDDYAMH | LISWNNGSIGYAPSVK | VGRGGGYFDY | 5.35 5.06 5.69 | 1/9 (5.32) |
| 10 | FFTFDDYAMH | FISWNSGSIGYADSVR | VGRGGGYFDY | nd nd nd | 0/9 |
| 11 | GFTFDDYATH | GISWNSGSIGYADSVT | VKRGGGYFDY | nd nd nd | 1/9 (3.92) |
| 12 | GPTFDDYAMH | GISWNSGSIGYSDSVK | SGRGGGYFDY | nd 4.97 nd | 6/9 (4.90) |
| 13 | GWTFDDYAMH | GISWNSGSIGYYDPVK | VGRGGGYFDY | nd nd 4.90 | 2/9 (4.08) |
| 14 | GFTPDDYAEH | GISWNSGSIGYADRVK | VGRGGGYFDY | 3.56 nd nd | 1/9 (4.52) |
| 15 | GFTFWDYAMG | GISWNSGSIGYADSVK | VGRGGGYFDI | nd 2.97 nd | 0/9 |
| 16 | GFTFDDYAMH | GISWNSGSIGYEDSVK | VGRGPGYFYY | nd nd nd | 4/9 (4.32) |
| 17 | GFTFDHYAEH | GISWDSGSIGYADSVK | VGRGGGYFDY | 3.97 3.88 nd | 3/9 (4.06) |
| 18 | GFTFDDYAMH | GISWNSGKIGYADSIH | VGRGGGYFDY | nd 3.12 nd | 0/9 |
| 19 | GFTFDDYVMH | GISWNSGSIGYADSVK | GPRGGGYFDY | nd nd nd | 3/9 (3.56) |
| 20 | GFTFDDYAYH | GISWNSGSIGYADSVK | VLRGEGYFDY | 4.95 nd nd | 5/9 (4.69) |
| 21 | GFTFDDYAMH | GIWWNSGSIGYWDSVK | QGRGGGYFDY | nd nd nd | 2/9 (4.53) |
| 22 | GFTFDDYMMH | GISWNSGSIGYLDSVK | VGRGGGYFDM | 2.08 1.95 1.76 | 0/9 |
| 23 | GFTFDAYAMH | GISWNSGSIGYADSVM | RGRGGGYFDY | 2.28 2.51 1.83 | 0/9 |
| 24 | GFTFDDYLMH | GISWNSGSIGYADCVV | VGRGGGYFDY | nd nd nd | 2/9 (4.79) |
| 25 | GFTFDDFAMH | GIDWNSGSIGYADSVK | VGRGGGYFDS | 2.72 3.15 2.64 | 4/9 (4.02) |
| 26 | AYTFDDYAMH | GISWNSGSIGYADSVK | VVRGGGYFDY | nd 5.48 nd | 0/9 |
| 27 | GFTFEDMAMH | GISWNSGSIGYADSVK | VGRGGGYFDY | 1.67 1.85 1.10 | 4/9 (4.56) |
| 28 | GFTFDVYAMH | GIHWNSLSIGYADSVK | VGRGGGYFDY | nd 4.77 nd | 4/9 (4.84) |
| 29 | GFTFDDYAMH | GISWNSGSIGNADSVK | PGRGGGMFDY | 3.83 3.58 nd | 0/9 |
| 30 | GFTFDDFAMC | GISWNSGSIGYADSVK | VGRGGGFFDY | nd nd nd | 1/9 (2.30) |
| 31 | GFTFDDYAMH | GISWNSGSIGGAKSVK | VGRGGGYQDY | nd nd nd | 0/9 |
| 32 | GFTFDDYAMH | GIEWASGSIGYADSVK | VGRGGGYIDY | nd nd nd | 0/9 |
| 33 | GFHFDDYAMQ | GISWNSGFIGYADSVK | VGRGGGYFDY | 5.55 5.57 nd | 5/9 (5.00) |
| 34 | GFTFDDYAMH | GISWNSGSIPYADSVK | VGEGGQYFDY | nd 5.67 nd | 1/9 (3.88) |
| 35 | GFTFDDYAMH | GISWNSGSIIYADSLK | VGRGGGYFDY | 4.14 4.16 nd | 2/9 (3.89) |
| 36 | GFTFDDYAMH | GISWNSGSIGYADSVT | VGRGGGYFDY | 2.09 1.86 0.99 | 0/9 |
| 37 | GFTFDDYAMH | GISWHSGSITYADSVK | VGRSGGYFDY | nd nd nd | 1/9 (4.11) |
| 38 | GFTFDDYAMH | GISWNSMSTGYADSVK | VGRGGGYFDY | 1.25 1.04 0.83 | 1/9 (2.05) |

The first 5 variants above that were never detected:

| CDR-H1 | CDR-H2 | CDR-H3 | log10 Kd (nM) by replicate | empty controls |
|---|---|---|---|---|
| GFTFDDYAMH | GISWNSGSIGYADSIK | CGRGGDYFDY | nd nd nd | 0/9 |
| GITFDDYAMH | GISWNSGSIGYADSVN | VGRWGGYFDY | nd nd nd | 2/9 (4.33) |
| GFTFDDYAMH | GISWNSGCIGYADSKK | VGRGGGYFDY | nd nd nd | 0/9 |
| FFTFDDYAMH | FISWNSGSIGYADSVR | VGRGGGYFDY | nd nd nd | 0/9 |
| GFTFDDYATH | GISWNSGSIGYADSVT | VKRGGGYFDY | nd nd nd | 1/9 (3.92) |